This is a selection; strong and weak results do not stand in their true shares. Entries with a potency or affinity are not part of this list. Calls of active or inactive are those of the source.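 The calls were made as follows: active = dose-dependent rise or fall in viability, either side of zero, with half-maximal concentration at or below a set limit; inconclusive = flat curve at 30 to 70% viability loss, or poor fit; inactive = flat within 30% either way, or potency beyond limit.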

The nature of this assay: proliferation inhibition in MITF-low A375 cells – cell-based, cherry-pick samples, set 2, counter-screen for MITF modulator project, dose response (AID 540335).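 Also: A375 human melanoma cells which do not depend on MITF; 0% = median of neutral control wells and 100% = double that signal.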 Particulars: CellTiter-Glo ATP luminescence, 24 h; at 35 µM (top of the series). (A counterscreen serves to expose hits that act by an unwanted route or on another target.)
Take `O=[N+]([O-])c1cc([N+](=O)[O-])c(-c2ccn[nH]2)s1`: the activity change, negative = decreased viability is inactive: -18.6%.

These data come from PubChem BioAssay AID540335 (Broad Institute, 2011).
